Laboratory results reported in article PMC11417371, “ENL reads histone β-hydroxybutyrylation to modulate gene transcription” (Nucleic Acids Research, 2024).

Target: T1, YEATS domain of ENL (ENLYEATS) (Homo sapiens, UniProt Q03111)
T1 construct: 6xHis-SUMO (N, cleaved yes); made in house; host or cells: Escherichia coli BL21(DE3)
T1 sequence (Q03111 1-148): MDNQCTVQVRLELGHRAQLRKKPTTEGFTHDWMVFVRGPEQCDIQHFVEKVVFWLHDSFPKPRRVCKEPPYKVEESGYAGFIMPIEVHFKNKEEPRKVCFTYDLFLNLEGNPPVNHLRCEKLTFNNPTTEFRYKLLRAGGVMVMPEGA
Experiment: ITC binding to ENL YEATS domain (wild type)
Details: MicroCal PEAQ ITC, 15°C, protein 100 μM, peptide 1000 μM, 19 drops, one set of binding sites model, histone H3 (1–17) peptides, ENLYEATS wild type (residues 1–148)

“unmodified: unmodified (H3K9un) histone H3 1-17 peptide” was tested, and the “binding dissociation constant (Kd)” value was “not detected”.
